Measured values taken from patent EP1027361B1, “6,11-BRIDGED ERYTHROMYCIN DERIVATIVES” (Abbott Laboratories, priority 1997, dated 1999).

Tested on: Streptococcus Pheumoniae 5979
Experiment: in vitro antibacterial activity, agar dilution MIC
Type: cell-based
Details: organism code ZZ, BHI agar, 35-37 °C, 20 to 24 hours
Description: Representative compounds of the present invention were assayed in vitro for antibacterial activity as follows: Twelve petri dishes containing successive aqueous dilutions of the test compound mixed with 10 mL of sterilized Brain Heart Infusion (BHI) agar (Difco 0418-01-5) were prepared. Each plate was inoculated with 1:100 (or 1:10 for slow-growing strains, such as Micrococcus and Streptococcus) dilutions of up to 32 different microorganisms, using a Steers replicator block. The inoculated plates were incubated at 35-37 °C for 20 to 24 hours. In addition, a control plate, using BHI agar containing no test compound, was prepared and incubated at the beginning and end of each test
An additional plate containing a compound having known susceptibility patterns for the organisms being tested and belonging to the same antibiotic class as the test compound was also prepared and incubated as a further control, as well as to provide test-to-test comparability. Erythromycin A was used for this purpose.
After incubation, each plate was visually inspected. The minimum inhibitory concentration (MIC) was defined as the lowest concentration of drug yielding no growth, a slight haze, or sparsely isolated colonies on the inoculum spot as compared to the growth control.

## CC[C@H]1OC(=O)[C@H](C)[C@@H](O[C@H]2C[C@@](C)(OC)[C@@H](O)[C@H](C)O2)[C@H](C)[C@@H](O[C@@H]2O[C@H](C)C[C@H](N(C)C)[C@H]2O)[C@](C)(O)C[C@@H](C)C(=O)[C@H](C)[C@@H](O)[C@]1(C)O [Ery. A, Erythromycin A, reference compound]
  minimum inhibitory concentration (MIC): >128
